In PubChem BioAssay AID1259374 (The Scripps Research Institute Molecular Screening Center, 2018):
The list shows a part of the results, in another mix than the full data. Activity calls are given as the source filed them. No stated cut-off is given here; in the data, active means inhibition above about 50%; inactive means the rest.

Chains of the proteins cited; added tags and fusions are not shown. Lines headed by an entry give the natural chain unless they say otherwise; changes in a name come on top.
UniProt O75030: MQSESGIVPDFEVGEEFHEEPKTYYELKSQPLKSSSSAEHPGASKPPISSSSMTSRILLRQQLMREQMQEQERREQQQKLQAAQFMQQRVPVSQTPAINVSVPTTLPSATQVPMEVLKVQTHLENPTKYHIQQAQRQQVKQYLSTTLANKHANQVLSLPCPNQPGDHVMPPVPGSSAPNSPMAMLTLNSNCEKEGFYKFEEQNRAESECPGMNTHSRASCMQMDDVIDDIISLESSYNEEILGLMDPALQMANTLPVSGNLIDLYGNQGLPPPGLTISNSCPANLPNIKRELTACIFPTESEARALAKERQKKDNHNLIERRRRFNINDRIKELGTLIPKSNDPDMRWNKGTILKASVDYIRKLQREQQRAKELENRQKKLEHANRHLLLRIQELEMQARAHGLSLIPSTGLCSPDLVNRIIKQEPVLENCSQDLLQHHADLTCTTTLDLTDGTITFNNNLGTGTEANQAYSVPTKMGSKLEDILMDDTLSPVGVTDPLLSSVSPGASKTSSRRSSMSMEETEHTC

target: Microphthalmia-associated transcription factor (Homo sapiens) (UniProt O75030); assay: MITF inhibitors, primary screen, biochemical, AlphaScreen, human (AID 1259374); conditions: AlphaScreen MITF homodimerization, bead proximity signal; at 2.6 µM; hits give high values;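 further: 0% = vehicle wells with protein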

SMILES	inhibition
Cc1cc(NC2=NC3C(C(=O)N(C)C(=O)N3C)N2C)n(-c2ccccc2)n1 (stereo unspecified)	inactive: 19.3%
CCOP(=O)(OCC)C(OC(=O)C(Cl)(Cl)Cl)=C(Cl)Cl	inactive: -0.86%
O=C(c1cccnc1)N(Cc1ccco1)C1CCN(CCc2ccccn2)CC1	inactive: 4.14%
O=[N+]([O-])c1cc([N+](=O)[O-])c(N(CC(O)CO)c2ccccc2)c([N+](=O)[O-])c1 (stereo unspecified)	inactive: 0.37%
COC(=O)C(CC(C)C)NC(=O)NP(=O)(Oc1ccccc1)Oc1ccccc1 (stereo unspecified)	inactive: -0.99%
O=C(Nc1ccc([N+](=O)[O-])cc1Cl)c1ccc([N+](=O)[O-])cc1[N+](=O)[O-]	inactive: 6.39%
Nc1cc(N)c2nonc2c1[N+](=O)[O-]	inactive: -9.92%
COc1ccc2c(c1)nc(NCCCl)n2C	inactive: 9.59%
Oc1ccccc1CNc1ccccn1	inactive: -4.83%
Nc1c([N+](=O)[O-])cc([N+](=O)[O-])c(Nc2cccc(C(=O)O)c2)c1[N+](=O)[O-]	inactive: 2.04%
Cc1cc(SC(NC(=O)CC(C)C)C(Cl)(Cl)Cl)ncn1 (stereo unspecified)	inactive: -11.1%
N=C1N=C(c2ccc([N+](=O)[O-])cc2)CC(C(Cl)(Cl)Cl)S1 (stereo unspecified)	inactive: -6.14%
CC(=O)OC=C1c2cc([N+](=O)[O-])cc([N+](=O)[O-])c2-c2c1cc([N+](=O)[O-])cc2[N+](=O)[O-]	inactive: 0.27%
O=C(Nc1ccc(C(F)(F)F)cc1[N+](=O)[O-])c1cc([N+](=O)[O-])cc([N+](=O)[O-])c1	inactive: 34.9%
NC(=O)c1cc([N+](=O)[O-])cc([N+](=O)[O-])c1N	inactive: -1.79%
Cc1ccc(N/C(=N/P(=O)(N2CCOCC2)N2CCOCC2)N2CCOCC2)cc1	inactive: -8%
Cc1cc(C)nc(SC(NC(=O)C(C)C)C(Cl)(Cl)Cl)n1 (stereo unspecified)	inactive: 4.12%
CCOC(=O)N1C2CCC1CC(OC(=O)C(O)(c1ccccc1)c1ccccc1)C2 (stereo unspecified)	inactive: -0.44%
COc1ccc(CCN2CCC(N(Cc3ccco3)C(=O)NC(C)C)CC2)cc1	inactive: -1.42%
CCN(CC)C1=NP(=O)(c2ccccc2)NC(c2ccccc2)=C1C#N (stereo unspecified)	inactive: -1.04%
CCOc1ccc(/C=C2/C(=O)NC(=O)N(Cc3ccco3)C2=O)cc1	active: 74.1%
CCCCOP(=O)(OCCCC)SC	inactive: 5.99%
COC(=O)c1ccc(OP2(=S)OCC(C)(C)CO2)cc1	inactive: -2.68%
CCOP(=O)(OCC)SCC(=O)NCCC(=O)O	inactive: 1.27%
O=[N+]([O-])c1cc([N+](=O)[O-])c(CCN2CCOCC2)c([N+](=O)[O-])c1	inactive: 19.8%
CN(C(=O)COC(=O)C(O)(c1ccccc1)c1ccccc1)c1ccccc1	inactive: -0.46%

SMILES	inhibition
O=[N+]([O-])c1ccc(Oc2ccccc2[N+](=O)[O-])c([N+](=O)[O-])c1	inactive: 11.8%
O=C(Nc1ccccc1[N+](=O)[O-])c1ccc([N+](=O)[O-])cc1[N+](=O)[O-]	inactive: 11.4%
CCOP(=O)(OCC)C(=O)c1ccccc1Cl	inactive: 2.77%
COc1ccc(NC2=NCC(CBr)S2)cc1 (stereo unspecified)	inactive: -3.06%
O=[N+]([O-])c1cc([N+](=O)[O-])c(OCC(O)C[n+]2ccccc2)c([N+](=O)[O-])c1 (stereo unspecified)	inactive: 2.32%
CCOP(=Nc1nc2ccccc2n2nnnc12)(OCC)OCC	inactive: 1.94%
CC(C)(C)C(=O)NC(Sc1ccncn1)C(Cl)(Cl)Cl (stereo unspecified)	inactive: 3.35%
Cc1c(Nc2ccc([N+](=O)[O-])cc2[N+](=O)[O-])cccc1[N+](=O)[O-]	inactive: 18%
C/C(=N\Nc1ccc([N+](=O)[O-])cc1[N+](=O)[O-])c1cccc([N+](=O)[O-])c1	inactive: -6.16%
CN1C(=O)C2C(NC(=NCCN3CCOCC3)N2C)N(C)C1=O (stereo unspecified)	inactive: 17.1%
C[n+]1c2n(c3ccccc31)CC(Cl)CS2 (stereo unspecified)	inactive: 9.09%
O=[N+]([O-])c1cc(/C=N/N=C/c2cc([N+](=O)[O-])cc([N+](=O)[O-])c2O)c(O)c([N+](=O)[O-])c1	inactive: 19.4%
O=C(c1ccc2c(c1)OCO2)N(Cc1ccco1)C1CCN(CCc2ccccn2)CC1	inactive: 1.08%
CCOP(=O)(Nc1ccc(Br)cc1)OCC	inactive: 0.19%
CCCCOP(=O)(OCCCC)N(CC)CC	inactive: -13.9%
O=[N+]([O-])c1cc([N+](=O)[O-])c2nc(-c3ccc([N+](=O)[O-])o3)[nH]c2c1	inactive: 10.9%
O=C(COC(=O)C(O)(c1ccccc1)c1ccccc1)NCc1ccc2c(c1)OCO2	inactive: -5.36%
CCOP(=O)(NNc1ccccc1)OCC	inactive: 0.74%
ClCCN1CCn2c1nc1ccccc12	inactive: -0.94%
Cn1c(SCC(=O)c2ccccc2OC(F)F)nc2ccccc21	inactive: -4.28%
CC(C)NC(=O)N(Cc1ccco1)C1CCN(CCc2ccccn2)CC1	inactive: -1.74%
Cc1cc(NP2(=O)C=C(c3ccccc3)OC(c3ccccc3)=C2)n[nH]1	inactive: 5.01%
O=[N+]([O-])c1cc([N+](=O)[O-])c(SCCNc2ccccc2)c([N+](=O)[O-])c1	inactive: 15%
CCOP(=S)(OCC)c1cccc(C(=O)O)c1	inactive: -10.2%
CCOc1ccc(NC(=O)c2cc([N+](=O)[O-])cc([N+](=O)[O-])c2)c([N+](=O)[O-])c1	inactive: 17.8%
CCN/N=C/c1c([N+](=O)[O-])cc([N+](=O)[O-])cc1[N+](=O)[O-]	inactive: 18.1%

SMILES	inhibition
ClC(Cl)(Cl)C1=NP2(=NC(c3ccccc3)=N1)OCCCO2	inactive: 14.4%
CC(=O)N(Cc1ccco1)C1CCN(CCc2cccs2)CC1	inactive: -3.14%
Nc1c([N+](=O)[O-])cc(C(=O)c2cc([N+](=O)[O-])c(N)c([N+](=O)[O-])c2)cc1[N+](=O)[O-]	inactive: -4.93%
CCCCOP1(=S)N=C2c3ccccc3CN2c2cc(N(C)C)ccc21 (stereo unspecified)	inactive: 6.29%
O=P(Nc1ccccn1)(OCC(F)(F)F)Oc1ccccc1 (stereo unspecified)	inactive: 8.75%
O=C(CCNCCCl)c1ccccc1	inactive: 11.5%
O=C(OC1CN2CCC1CC2)C1COc2ccccc2O1 (stereo unspecified)	inactive: 17.7%
COP(=O)(NS(=O)(=O)c1ccc(Cl)cc1)OC	inactive: -1.17%
Cc1cc(NP2(=O)C=C(c3ccccc3)SC(c3ccccc3)=C2)n[nH]1	inactive: 15%
Cc1nc(Nc2cccc([N+](=O)[O-])c2)nc(Nc2cccc([N+](=O)[O-])c2)c1[N+](=O)[O-]	inactive: 12.6%
O=C(N/N=C/c1ccc([N+](=O)[O-])cc1)c1cc([N+](=O)[O-])cc([N+](=O)[O-])c1	inactive: -2.1%
Cc1cc(C)nc(NNc2c([N+](=O)[O-])cc([N+](=O)[O-])c(C)c2[N+](=O)[O-])n1	inactive: 1.74%
Cc1ccc(S(=O)(=O)N2C(=O)CSC2C(Cl)(Cl)Cl)cc1 (stereo unspecified)	inactive: 11.9%
CCOP(=O)(Nc1cccc(C(F)(F)F)c1)OCC	inactive: 1.01%
O=C(OC1CN2CCC1CC2)c1cccc(F)c1 (stereo unspecified)	inactive: -4.58%
O=C(COC(=O)C(O)(c1ccccc1)c1ccccc1)NCc1cccs1	inactive: 5.06%
O=P(/N=C(/N1CCOCC1)C(Cl)(Cl)Cl)(N1CCOCC1)N1CCOCC1	inactive: -115%
N=C(N)SCC(Br)CN1C(=O)c2ccccc2C1=O (stereo unspecified)	inactive: -2.31%
CC(C)OC(=O)NC(SC#N)C(Cl)(Cl)Cl (stereo unspecified)	inactive: 21.5%
Cc1cccc(NC2=NCC(CBr)S2)c1 (stereo unspecified)	inactive: 21.7%
Cc1c([N+](=O)[O-])cc(C(=O)Nc2ccc([N+](=O)[O-])cc2)cc1[N+](=O)[O-]	inactive: -1.56%
Cc1c([N+](=O)[O-])c([N+](=O)[O-])nn1CC(=O)Nc1cc(O)cc([N+](=O)[O-])c1	inactive: 8.4%
CCOC(=O)c1ccccc1OP(=O)(OCC)SCC(C)C (stereo unspecified)	inactive: -2.84%
CCc1nc2c(n1)c1c(non1O)c1c2no[n+]1[O-]	inactive: 7.63%
